Measurements as given in publication PMC5238433 (Scientific Reports, 2017).
“Also recorded” adds a separate entry of the source.

Amino acid sequences for entries named in this document (tags omitted). A change or cut given only in a name is not applied to a line headed by its entry.
UniProt P35414: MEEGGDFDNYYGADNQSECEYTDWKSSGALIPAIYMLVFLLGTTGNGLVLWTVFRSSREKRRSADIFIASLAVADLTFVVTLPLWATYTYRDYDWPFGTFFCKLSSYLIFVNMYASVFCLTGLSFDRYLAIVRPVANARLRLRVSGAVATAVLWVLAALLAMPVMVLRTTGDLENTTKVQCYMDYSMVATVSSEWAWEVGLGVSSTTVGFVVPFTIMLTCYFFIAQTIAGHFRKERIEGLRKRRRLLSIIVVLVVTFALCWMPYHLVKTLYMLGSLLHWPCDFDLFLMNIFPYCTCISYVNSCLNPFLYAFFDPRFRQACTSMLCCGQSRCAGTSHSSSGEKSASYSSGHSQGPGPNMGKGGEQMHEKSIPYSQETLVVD

Legend:
[1] = system: APJ oligomers (APJ-Rluc, APJ-VN173, APJ-VC155); assay: BiFC-BRET, effect of agonist/antagonist treatment on APJ oligomerization; type: cell-based, human; settings: CHO cells co-expressing APJ-Rluc, concentration not given, four independent experiments in triplicate
Description: Additionally, BiFC-BRET assays were performed to detect APJ oligomerization in living cells. Two non-fluorescent fragments (pCE-BiFC-VN173 and pCE-BiFC-VC155) of Venus fluorescent protein were separately fused to APJ (APJ-VN173 and APJ-VC155) (Fig. 4A). CHO cells were then co-transfected with APJ-Rluc, APJ-VN173, and APJ-VC155 and observed with TIRFM.
Figure 4 Assessment of apelin receptor (APJ) oligomerization with bioluminescence resonance energy transfer - bimolecular fluorescence complementation (BiFC-BRET). (A) Principle of BiFC-BRET. The assay examines the formation of functional Venus by the complementation of protein fragments fused to APJ. Association of APJ enables formation of a bimolecular fluorescent complex. If all three tagged APJ proteins interact, BRET can occur. (B) TIRFM detection of APJ dimers (yellow particles) after BiFC. (C) Assessment of APJ oligomerization with BiFC-BRET. (D) Assessment of agonist-induced oligomerization.

[2] = system: human umbilical vein endothelial cells (HUVECs); assay: xCELLigence RTCA, apelin-13-induced cellular response (cell index) with or without interference peptide; type: cell-based
Description: All curves were plotted as the average of quadruplicate treatments, with error bars shown as SEM.
A background step (step 1) was performed before other experimental steps. The background step was performed with each well of the E-Plate 16 containing only culture media (100 μl/well) for 30 min at 37 °C, prior to the addition of 10000 HUVECs per well (100 μl/well). […] The schedule settings were as follows (RTCA Software 2.0): […]

APJ monomers = APJ monomers (Homo sapiens, UniProt P35414); settings: CHO cells, 1 μM apelin-13
APJ = APJ (Homo sapiens, UniProt P35414); settings: xCELLigence RTCA, apelin-13 0 to 100 uM; average of quadruplicate treatments

Substance | BRET ratio versus unstimulated cells (APJ oligomerization, BiFC-BRET) [1] | HUVEC cell index (CI) after apelin-13 alone ([2]; apelin-13 10 μM, 0.1 μM, 1 nM, 10000 HUVECs per well, average of quadruplicates) | duration of transient increase in HUVEC CI after apelin-13 ([2]; apelin-13 stimulation of HUVECs) [h] | G protein activation, Gα12 (APJ monomers; APJ monomers) | G protein activation, Gα13 (APJ monomers; APJ monomers) | G protein activation, Gαi1 (APJ monomers; APJ monomers) | G protein activation, Gαi2 (APJ monomers; APJ monomers) | G protein activation, Gαi3 (APJ monomers; APJ monomers) | G protein activation, Gαo (APJ monomers; APJ monomers) | G protein activation, Gαq (APJ monomers; APJ monomers) | G protein activation, Gαs (APJ monomers; APJ monomers) | time to maximum BRET increase (APJ monomers; positive controls Gα-Rluc8 and APJ-Venus, for Gαi1, Gαi2, Gαi3, Gαq and Gαo) | concentration for maximal effect (APJ)
[Ala13]apelin-13 | the same as that of unstimulated cells |  |  |  |  |  |  |  |  |  |  |  | 
apelin-13 | the same as that of unstimulated cells | elicited a further increase in the HUVEC cell index (CI); also recorded: a transient increase in HUVEC CI | 2 to 3 | not Gαs and Gα12 | activate | activate | activate | activate | activate | activate | not Gαs and Gα12 | ~ 5 min | 10^−6 M
